Results published in patent US9458140B2, “Furanone compounds as kinase inhibitors” (Eternity Bioscience Inc., priority 2013, dated 2016).

Amino acid sequences for entries named in this document (tags omitted).
UniProt P15056, whole entry V600E: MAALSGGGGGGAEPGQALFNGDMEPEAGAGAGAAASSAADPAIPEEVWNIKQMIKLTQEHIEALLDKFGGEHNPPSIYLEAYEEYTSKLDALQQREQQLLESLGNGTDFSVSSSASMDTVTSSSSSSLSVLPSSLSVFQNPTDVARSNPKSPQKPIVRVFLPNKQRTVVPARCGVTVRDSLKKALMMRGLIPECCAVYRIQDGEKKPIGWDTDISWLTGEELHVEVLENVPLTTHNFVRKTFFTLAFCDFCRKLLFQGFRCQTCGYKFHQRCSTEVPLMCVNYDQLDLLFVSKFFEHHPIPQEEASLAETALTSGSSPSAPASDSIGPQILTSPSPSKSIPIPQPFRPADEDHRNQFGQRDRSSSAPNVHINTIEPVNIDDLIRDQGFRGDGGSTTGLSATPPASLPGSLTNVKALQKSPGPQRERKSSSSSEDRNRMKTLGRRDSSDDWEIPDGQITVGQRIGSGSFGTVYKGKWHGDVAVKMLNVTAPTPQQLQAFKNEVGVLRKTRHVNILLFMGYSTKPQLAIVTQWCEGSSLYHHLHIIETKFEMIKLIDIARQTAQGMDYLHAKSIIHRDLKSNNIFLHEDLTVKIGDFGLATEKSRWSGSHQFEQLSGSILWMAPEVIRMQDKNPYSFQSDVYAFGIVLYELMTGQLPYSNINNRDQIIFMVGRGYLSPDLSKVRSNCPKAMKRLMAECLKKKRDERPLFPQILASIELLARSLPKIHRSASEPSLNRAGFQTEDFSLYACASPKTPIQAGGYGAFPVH

Legend:
[1] = tested on: A375 cells; assay: Cell proliferation assay (CellTiter-Glo), A375 cell growth; conditions: read-out: A375 cell growth IC50, 3-day treatment
Description: Cell proliferation assay: A375, Colo-205, Calu-6, and SW-480 cells were purchased from American Type Culture Collection (USA). All cells were cultured in the recommended medium and serum concentration. Cells were maintained at 37° C. in a humidified atmosphere with 5% CO2. For cell proliferation assay, cells were seeded in 96-well pates at a density of 1,000 to 5,000 cells per well and cultured overnight at 37° C. in a medium supplemented with 5-10% FBS. On the next day, the test articles at various concentrations or vehicle control (1% DMSO) were added into cell culture. After 3-day treatment, the growth of cells was assayed by the CellTiter-Glo® Luminestceaent Cell Viability Assay (Promega). IC50 value was calculated using GraphPad Prism by plotting the logarithm of the concentration versus percent inhibition of cell growth.

[2] = target: BRAF^V600E (Homo sapiens (Human), UniProt P15056, V600E); assay: BRAF^V600E enzymatic activity assay (LanthaScreen kinase assay); conditions: read-out: BRAF^V600E Lantha IC50; LanthaScreen TR-FRET, ATP 2 μM, 60 minutes, room temperature

CC1(C)OC(c2ccnc(N)n2)=C(c2cccc(NS(=O)(=O)c3c(F)cccc3F)c2F)C1=O
IC50 [1]: 970 nM
IC50 [2]: 160 nM
